In the test the target is T1, Lysosomal protective protein (Homo sapiens, UniProt P10619).
T1 sequence (P10619 whole entry): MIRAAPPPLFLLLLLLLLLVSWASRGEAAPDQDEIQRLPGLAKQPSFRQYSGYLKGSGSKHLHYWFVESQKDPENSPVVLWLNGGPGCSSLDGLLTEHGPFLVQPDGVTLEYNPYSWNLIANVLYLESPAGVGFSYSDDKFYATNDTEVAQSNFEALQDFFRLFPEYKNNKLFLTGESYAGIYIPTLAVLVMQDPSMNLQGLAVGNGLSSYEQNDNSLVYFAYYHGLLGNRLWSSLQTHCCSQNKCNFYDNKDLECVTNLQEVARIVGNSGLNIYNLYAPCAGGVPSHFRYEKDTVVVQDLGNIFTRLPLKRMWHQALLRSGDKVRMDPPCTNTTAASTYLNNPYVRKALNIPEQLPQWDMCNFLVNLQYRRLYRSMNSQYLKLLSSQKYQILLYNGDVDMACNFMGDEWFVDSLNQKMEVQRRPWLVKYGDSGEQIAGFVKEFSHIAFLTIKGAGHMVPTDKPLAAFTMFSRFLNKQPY
The experiment in a line: Inhibition of human recombinant Myc-His10-tagged cathepsin A expressed in baculovirus infected Sf9 cells using BodipyFL labeled bradykinin as substrate incubated for 15 mins prior to substrate addition measured after 15 mins by fluorimetric analysis.

As to `Cc1ccccc1[C@H](CC(=O)O)NC(=O)c1cc(OC[C@H](O)C(C)(C)C)n(-c2ccccc2F)n1`, the concentration for half-maximal inhibition (IC50) is 5 nM.
